Protein sequences, listed by entry. Tags and fused reporters are not part of them. Residues count along the entry.
UniProt P45983, 1-384 isoform P45983-2: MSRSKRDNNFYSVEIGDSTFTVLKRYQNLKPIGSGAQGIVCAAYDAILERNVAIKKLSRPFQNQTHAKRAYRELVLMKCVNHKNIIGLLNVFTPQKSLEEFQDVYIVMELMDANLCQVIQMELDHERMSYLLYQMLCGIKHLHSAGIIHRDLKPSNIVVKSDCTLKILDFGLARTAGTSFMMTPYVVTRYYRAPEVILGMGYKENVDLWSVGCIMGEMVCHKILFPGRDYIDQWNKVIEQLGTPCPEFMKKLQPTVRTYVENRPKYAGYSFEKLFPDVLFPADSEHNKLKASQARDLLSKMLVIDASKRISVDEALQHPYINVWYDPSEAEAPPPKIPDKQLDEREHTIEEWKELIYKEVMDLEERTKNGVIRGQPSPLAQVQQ

In patent US20090105270A1, “Kinase inhibition and anticancer therapy” (priority 2007, published 2009):

What was measured:
[1] = target: T1, EGFR(L858R)(h) (Homo sapiens, UniProt P00533, L858R); experiment: Upstate kinase activity inhibition assay EGFR(L858R)(h); assay type: biochemical; conditions: 0.2 μM Compound E
T1 construct: purchased Upstate (KinaseProfiler service)

[2] = target: JNK1α1(h) (Homo sapiens, UniProt P45983); experiment: Upstate kinase activity inhibition assay JNK1α1(h)

Measured: percentage of enzyme activity that remains

Cc1cc(Nc2cc(N3CCN(C)CC3)nc(Sc3ccc(NC(=O)C4CC4)cc3)n2)n[nH]1 [Compound E, Cyclopropane carboxylic acid {4-[4-(4-methyl-piperazin-1-yl)-6-(5-methyl-2H-pyrazol-3-ylamino)-pyrimidin-2-ylsulphanyl]-phenyl}-amide]
102%: [1] | [2]; 0.2 μM Compound E | [2]; 4 μM Compound E
